This is a selection; strong and weak results do not stand in their true shares. Activity calls are given as the source filed them.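 Rule for the calls: active = percent response vs DMSO below 50%; inconclusive = fewer than 70 events counted for the yeast strain; inactive = the rest.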

Data on 52 molecules can be found in PubChem BioAssay AID2025 (NMMLSC, 2009).

The assay can be described thus: compounds altering RPL19A-GFP fluorescence, TOR branch – cell-based, S. cerevisiae, multiplex flow cytometry, MLPCN, primary screen (AID 2025).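 Note: median channel GFP fluorescence of the barcoded RPL19A-GFP strain; ratio of sample median GFP to plate DMSO average so 100% = DMSO; lower means less RPL19A-GFP as with rapamycin TOR inhibition.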 The conditions noted are these: S. cerevisiae RPL19A-GFP strain, 3 h, at 10 µM, active compounds read low.
Take `O=C(OC1CN2CCC1CC2)c1cccc([N+](=O)[O-])c1` (configuration not stated): the percent response vs DMSO is inactive: 101%.

With `CCOC(=O)c1ccc(NC(=O)C(C)(CCl)SC)cc1` (configuration not stated), the percent response vs DMSO was inactive: 103%. As for `Cc1cc(SC(NC(=O)c2ccccc2)C(Cl)(Cl)Cl)nc(C(C)C)n1` (configuration not stated), the percent response vs DMSO is inactive: 94.6%.

`CCOC(=O)Nc1ccc([As](=O)(O)O)c(O)c1`: the percent response vs DMSO is inactive: 108%. `Cc1cc(SC(NC=O)C(Cl)(Cl)Cl)ncn1` (configuration not stated): the percent response vs DMSO was inactive: 103%. Under `O=P(Nc1ccccn1)(c1cccc2ccccc12)c1cccc2ccccc12` stands inactive: 85.5%; under `O=[N+]([O-])c1ccc(Nc2ccc(Oc3ccc([N+](=O)[O-])cc3[N+](=O)[O-])cc2)c([N+](=O)[O-])c1`, inactive: 105%; under `CCOC(=O)Nc1cccc([As](=O)(O)O)c1`, inactive: 92.6%. Under `Cc1ccc(OP(=O)(Nc2ccc([N+](=O)[O-])cn2)Oc2ccc(C)cc2)cc1` stands inactive: 102%; under `Cc1ccc2nc3c(c(C)c2c1)CC(C(Cl)Cl)S3` (configuration not stated), inactive: 100%; under `COc1cc(C(=O)NCC2(N3CCOCC3)CCCCC2)ccc1OCC(C)C`, inactive: 102%. Turning to `C[As](=O)(O)c1cccc(C(=O)O)c1`, the percent response vs DMSO was inactive: 104%. For `O=[As](O)(c1ccc(O)cc1)c1ccccc1O`, the percent response vs DMSO is inactive: 97.6%. For the molecule `O=[N+]([O-])c1cc([N+](=O)[O-])c(-c2ccn[nH]2)s1`, the percent response vs DMSO was inactive: 96.6%. Turning to `CC(C)NC(=O)NP(=O)(Oc1ccccc1)Oc1ccccc1`, the percent response vs DMSO is inactive: 96.9%. Under `CCN(CC)C(=S)SC(NC=O)C(Cl)(Cl)Cl` (configuration not stated) stands inactive: 100%. Under `ClCCSc1nnc(-c2cccnc2)o1` stands inactive: 93.9%; under `CC(C)c1ccc(OP(=O)(Nc2ccccn2)Oc2ccccc2F)cc1` (configuration not stated), inactive: 93.6%; under `COc1cc(I)ccc1[As](=O)(O)O`, inactive: 106%.

Consider `COc1ccc2nc(NP(=O)(c3ccccc3)c3ccccc3)sc2c1`, for which the percent response vs DMSO is inactive: 98.4%. For `Cc1c2c(nc3ccccc13)SC(C(Cl)Cl)C2` (configuration not stated), the percent response vs DMSO is inactive: 102%. Under `Cc1cc(=O)[nH]c(N[N+](=O)[O-])n1` stands inactive: 102%. Under `O=C(OC1CN2CCC1CC2)C12CC3CC(CC(C3)C1)C2` (configuration not stated) stands inactive: 109%. The result for `COc1ccc(N/C(=N/P(=O)(N2CCOCC2)N2CCOCC2)N2CCOCC2)cc1` reads inactive: 99.8%; that for `CN1CCCC(OC(=O)C(c2ccccc2)c2ccccc2)C1` (configuration not stated), inactive: 97.6%. Consider `Clc1ccc(Cl)c(NC2=NCC(CBr)S2)c1` (configuration not stated), for which the percent response vs DMSO was inactive: 91.4%. The result for `Cc1ccc(OP(=O)(Nc2nccs2)Oc2ccc(C)cc2)cc1` reads inactive: 105%; that for `COc1ccccc1OP(=O)(Nc1ccc(C)cn1)Oc1ccccc1OC`, inactive: 97.7%. The result for `Cc1ccc(N/C(=N/P(=O)(N2CCOCC2)N2CCOCC2)N2CCOCC2)cc1` reads inactive: 92.7%; that for `CN(C(=O)Cc1ccc(Cl)c(Cl)c1)[C@H]1CCCC[C@H]1N1CCCC1`, inactive: 99%; that for `NC(=O)c1cc([N+](=O)[O-])cc([N+](=O)[O-])c1N`, inactive: 102%. As for `O=C(NC(Sc1ccncn1)C(Cl)(Cl)Cl)c1ccccc1` (configuration not stated), the percent response vs DMSO was inactive: 108%.

As to `Cc1c2non([O-])c-2c(C)[n+](=O)[n+]1[O-]`, the percent response vs DMSO is inactive: 98%. Consider `Oc1ccccc1CNc1ccccn1`, for which the percent response vs DMSO was inactive: 94.7%.

`Nc1cc(N)c2nonc2c1[N+](=O)[O-]`: the percent response vs DMSO is inactive: 95.3%. Consider `CC(C)CC(=O)NC(Sc1ccc(Cl)cc1)C(Cl)(Cl)Cl` (configuration not stated), for which the percent response vs DMSO was inactive: 101%. Under `CN(C(=O)Cc1ccc(Cl)c(Cl)c1)[C@H]1CCCC[C@@H]1N1CCCC1` stands inactive: 102%; under `Cc1ccc(NP(=O)(Oc2ccccc2F)Oc2ccccc2F)nc1`, inactive: 93.5%; under `Cc1cc(SC(NC(=O)c2ccc(F)cc2)C(Cl)(Cl)Cl)ncn1` (configuration not stated), inactive: 99.7%.

`CCOP(=O)(Nc1ccccc1)OCC`: the percent response vs DMSO was inactive: 96.8%. Under `O=P(Nc1nc2ccc(Cl)cc2s1)(c1ccccc1)c1ccccc1` stands inactive: 96.3%; under `CC(=O)Nc1ccc([As](=O)(O)O)cc1`, inactive: 96.4%. Consider `O=C(O)c1ccccc1[As](=O)(O)O`, for which the percent response vs DMSO was inactive: 100%.

Turning to `Nc1cccc2ccc([As](=O)(O)O)cc12`, the percent response vs DMSO was inactive: 103%. `CCN(N=Nc1nonc1N)c1nonc1N`: the percent response vs DMSO is inactive: 104%. The result for `O=[N+]([O-])c1cc([N+](=O)[O-])c(CCN2CCOCC2)c([N+](=O)[O-])c1` reads inactive: 101%. Under `O=C(Nc1cc([As](=O)(O)O)ccc1O)c1ccccc1` stands inactive: 107%; under `O=C(O)CNc1ccc([As](=O)(O)O)cc1`, inactive: 102%. Take `O=[N+]([O-])c1cccc(NC2=NCC(CBr)S2)c1` (configuration not stated): the percent response vs DMSO was inactive: 108%. Consider `O=[N+]([O-])c1ncn(CCn2ncnc2[N+](=O)[O-])n1`, for which the percent response vs DMSO was inactive: 92.4%. `CC(C)(C)C(=O)NC(Sc1ccncn1)C(Cl)(Cl)Cl` (configuration not stated): the percent response vs DMSO is inactive: 94.2%. Take `O=[N+]([O-])c1cc([N+](=O)[O-])c(CCNc2ccccc2)c([N+](=O)[O-])c1`: the percent response vs DMSO was inactive: 91.5%.
